Laboratory results from BindingDB's records for doi:10.1016/s0022-2836(03)00399-1 (Celera, 2003).

Protein sequences, listed by entry. Tags and fused reporters are not part of them. Residues count along the entry.
UniProt P00742, 41-179 limits assumed: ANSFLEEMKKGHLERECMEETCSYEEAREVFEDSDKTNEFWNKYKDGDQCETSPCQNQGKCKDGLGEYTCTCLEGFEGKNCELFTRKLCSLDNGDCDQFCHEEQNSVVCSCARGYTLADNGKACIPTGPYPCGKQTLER
UniProt P00742, 235-488 limits assumed: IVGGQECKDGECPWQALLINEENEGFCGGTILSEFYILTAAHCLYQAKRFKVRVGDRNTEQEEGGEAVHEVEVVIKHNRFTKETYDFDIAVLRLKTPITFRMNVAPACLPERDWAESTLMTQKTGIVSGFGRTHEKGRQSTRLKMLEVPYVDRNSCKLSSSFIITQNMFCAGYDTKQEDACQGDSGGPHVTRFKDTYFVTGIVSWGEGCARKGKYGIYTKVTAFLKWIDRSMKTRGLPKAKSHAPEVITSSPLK

Target: Coagulation factor X (Homo sapiens, UniProt P00742)
Assay: Enzyme Assay and Determination of the Inhibition Constants

| Ki [nM] | SMILES |
| --- | --- |
| 1600 | N=C(N)c1ccc2nc(-c3cccc(-c4ccccc4)c3O)[nH]c2c1 [2-{5-[amino(iminiumyl)methyl]-1H-1,3-benzodiazol-2-yl}-6-phenylbenzen-1-olate] |
| 980 | N=C(N)c1cc2cc(-c3cccc(-c4ccccc4)c3O)[nH]c2cc1F [CA-12] |
